IC50 and inhibition of edema data for seven compounds are collected here from patent publication US20050075345A1, “Novel inhibitor compounds specific of secreted non-pancreatic human a2phospholipase of group II” (Yang Ji Chemical Company Ltd., priority 2001, published 2005).

Chains of the proteins cited; added tags and fusions are not shown. Residues count along the entry.
UniProt P00592, 23-146 limits assumed: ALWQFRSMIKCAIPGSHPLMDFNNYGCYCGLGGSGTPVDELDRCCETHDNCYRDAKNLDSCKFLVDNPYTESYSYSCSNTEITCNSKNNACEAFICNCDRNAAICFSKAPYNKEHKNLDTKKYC
UniProt P14555, 21-144 limits assumed: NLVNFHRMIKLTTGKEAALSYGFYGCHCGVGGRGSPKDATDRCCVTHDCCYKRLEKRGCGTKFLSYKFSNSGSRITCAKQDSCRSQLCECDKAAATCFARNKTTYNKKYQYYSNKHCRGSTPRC

Test [1] addresses porcine pancreatic PLA2 (group I) (Sus scrofa, UniProt P00592). Put plainly: Fluorometric anti-PLA2 assay, porcine pancreatic PLA2 (group I). It counts as biochemical. Particulars: read-out: Anti-PLA2 activity IC50 PPLA2; measured for fluorescence with porcine pancreatic PLA2 (group I). How it is done:
(§1) Phospholipase A2 hydrolyzes an ester linkage at the sn-2 position of glycerophospholipid and liberates fatty acids and lysophospholipids. The in vitro action of particular compounds was evaluated by the analysis of fatty acids according to the fluorometric method described in Radvanyi et al., Anal. Biochem. 1989, 177. 103-109, and by the analysis of lysophospholipids according to the UV spectrophotometric method described in Reynolds et al., Anal. Biochem. 1992, 204, 190-197.
(§2) Enzymes used were two secretory enzymes of group II (human recombinant PLA2, and PLA2 basic subunit isolated from Crotalus durissus terrificus), and a secretory enzyme of porcine pancreatic (group I) PLA2.
(§3) Regarding substrates, palmitoyl-2-(10-pyrenyl decanoyl)-sn-glycero-3-phosphatidylglycerolic acid as a fluorescent substrate was used in the fluorometric method, and the lithium salt of 1,2-bis-(dihexanylthio)-dideoxy-rac-glycero-3-phosphorylglycerol was used in the UV spectrophotometric method.
(§4) The fluorometric analysis was performed using a Perkin Elmer LS50 luminescence spectrometer in a unit dosage polystyrene cell having a size of 1 cm. The exact concentration of the fluorescent substrate was determined by UV Unicam spectrometry in a quartz cell.
(§5) PLA2 is an enzyme that hydrolyzes an ester linkage at the sn-2 position of phospholipid. […] After hydrolysis with the enzyme, fluorescence emitted by the liberated fatty acid (pyrenyl decanoic acid) complex with bovine serum albumin (BSA) is increased, and strong fluorescence emission is observed at 378 and 398 nm. The principle of the analysis is to measure a difference in fluorescence at 398 nm in order to examine the production of fatty acids liberated for a given period of time, thus determining the PLA2 activity.
Measurement of the enzymatic activity was performed in a cell containing: 960 μl of Tris buffer; 50 mM HCl (pH 7.5); 0.5 M NaCl, 1 mM EGTA; and 1 μl substrate. This mixture was stirred under reflux for one minute to permit the formation of vesicles of substrate, and then, 10 μl of 10% SAB, 10 μl of solvent (ethanol or DMSO) or inhibitor solution, 10 μl of PLA2 to a given concentration and finally 10 μl of 1 M calcium chloride (CaCl2) for initiating the activity were successively added to the mixture under stirring.
Good conditions of measurement of the enzymatic activity include saturation of the enzyme, and thus, initial concentrations used are as follows: (i) human recombinant PLA2: 0.1 μl/ml; (ii) porcine pancreatic PLA2: 0.6 μl/ml; and (iii) Crotalus durissus terrificus (CB) PLA2: 0.05 μl/ml. Mother solution containing the inhibitor was prepared at an initial concentration of 10^−2 M.
The enzymatic activity is shown by a curve of which the original slope permits to calculate the initial velocity of the reaction. The following equation permits to calculate the enzymatic activity (A; μmol) of fatty acids liberated per minute. In the equation, S0 represents the slope of a curve in the absence of calcium (control), S the slope in the presence of calcium, V the volume (μl) of the substrate solution, and Fmax the signal of maximum fluorescence obtained at the end of the enzymatic reaction: [formula]
(§6) The residual activity in the presence of an inhibitor was evaluated by slopes obtained in the absence and presence of an inhibitor, according to the following equation: Residual activity (%)=(S−S0) in the presence of inhibitor/(S−S0) in the absence of inhibitor […]

Test [2] deals with human recombinant PLA2 (group II) (Homo sapiens, UniProt P14555). The test is described as follows: Fluorometric anti-PLA2 assay, human recombinant PLA2 (group II). In kind it is biochemical. The note with it: read-out: Anti-PLA2 activity IC50 HPLA2; measured for fluorescence with human recombinant PLA2 (group II). How it is done:
as §1, §2, §3, §4, §5
Measurement of the enzymatic activity was performed in a cell containing: 960 μl of Tris buffer; 50 mM HCl (pH 7.5); 0.5 M NaCl, 1 mM EGTA; and 1 μl substrate. […]
The enzymatic activity is shown by a curve of which the original slope permits to calculate the initial velocity of the reaction. […] In the equation, S0 represents the slope of a curve in the absence of calcium (control), S the slope in the presence of calcium, V the volume (μl) of the substrate solution, and Fmax the signal of maximum fluorescence obtained at the end of the enzymatic reaction: [formula]
as §6

The subject of test [3] is carrageenan-induced edema. The test is described as follows: Carrageenan-induced edema test in rats. Particulars: dose of 10 mg/kg. As to the method:
An in vivo activity assay was performed by a carrageenan-induced edema test in rats.
In the experimental protocol conducted, indomethacin as the reference product, or the compound No. 5, was administered intraperitoneally or orally at one hour before the injection of carrageenan into the hind leg of the rats. The volume of edema was measured at 0, 3 and 5 hours after the injection of carrageenan. The doses used were 5, 10 and 20 mg/kg for the two products tested.
(The carrageenan paw model is a standard test of acute inflammation.)

Regarding `CCCCCCCCCCCCCCCCCCCCN1CCN(C(=O)c2ccc(Cc3noc(=O)[nH]3)cc2)CC1`, the IC50 in test [1] is above 100 µM.
Consider `CCCCCCCCCC(CCCCCCCCC)N1CCN(C(=O)c2ccc(Cc3noc(=O)[nH]3)cc2)CC1`, for which the figures for the IC50 in test [2] and in test [1] were 0.3 µM and above 100 µM, respectively.
On the same counts, the results for `CCCCCCCCCCCCCCCCN1CCN(Cc2ccc(Cc3noc(=O)[nH]3)cc2)CC1` are 10 µM and above 100 µM.
With `CCCCCCCCCCCCCCCCCCN1CCN(Cc2ccc(Cc3noc(=O)[nH]3)cc2)CC1`, the IC50 in test [1] was above 100 µM.
`CCCCCCCCCCCCCCN1CCN(C(=O)c2ccc(Cc3noc(=O)[nH]3)cc2)CC1` [Example 8, 1-[4′-(4,5-dihydro-1,2,4(4H)-5-oxo-oxadiazol-3-ylmethyl)benzoyl]-4-tetradecylpiperazine]: the inhibition of edema in test [3] (intraperitoneal route, given one hour before carrageenan) was determined as 73%; in test [3] (oral route, at 5 hours after the injection of carrageenan), 65%. Moreover, the IC50 in test [2] turned out to be 9 µM.
`CCCCCCCCCCCCCCCCCCCCCCN1CCN(C(=O)c2ccc(Cc3noc(=O)[nH]3)cc2)CC1`: in test [1], the IC50 was above 100 µM.
Regarding `CCCCCCCCCCCCN1CCN(Cc2ccc(Cc3noc(=O)[nH]3)cc2)CC1`, in test [2], the IC50 is above 100 µM.

As usually defined, the IC50 is the concentration at which inhibition is half-maximal.
